Test results reported in patent US10870689B2, “ApoM-Fc fusion proteins, complexes thereof with sphingosine 1-phosphate (S1P), and methods for treating vascular and non-vascular diseases” (Children's Medical Center Corporation, priority 2016, dated 2020).

The chains behind the UniProt entries cited, without tags or fusion partners.
UniProt P21453, whole entry: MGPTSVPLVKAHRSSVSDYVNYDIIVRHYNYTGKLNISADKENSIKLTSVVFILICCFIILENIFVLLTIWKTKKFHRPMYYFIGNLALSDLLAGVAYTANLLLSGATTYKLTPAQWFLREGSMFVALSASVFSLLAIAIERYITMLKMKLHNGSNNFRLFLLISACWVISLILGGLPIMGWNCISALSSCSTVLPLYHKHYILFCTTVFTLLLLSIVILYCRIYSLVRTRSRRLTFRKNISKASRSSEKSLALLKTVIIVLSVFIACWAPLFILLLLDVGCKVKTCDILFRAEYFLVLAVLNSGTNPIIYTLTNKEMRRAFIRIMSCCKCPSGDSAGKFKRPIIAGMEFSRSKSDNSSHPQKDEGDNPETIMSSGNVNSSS

Target: T1, S1P1 (Homo sapiens, UniProt P21453)
T1 construct: expressed in transfected cells
Assay: S1P1 internalization in U2OS cells expressing S1P1-GFP
Assay type: cell-based
Conditions: 30 min
Description: The human osteosarcoma cell line, U2OS, was created to stably express the S1P1 receptor fused to GFP and selected for high-level expression. Cells were plated in a 384 well plate and brought to confluence. Cells were then starved in serum-free media for 2 hours and individual wells were stimulated for 30 minutes with several concentrations of FTY720-P, Albumin-S1P (10-100 nM), ApoM-Fc-S1P (1-20 μg/ml ) or ApoM-Fc-TM (1-20 μg/ml). Cells were then fixed for 15 minutes with 4% PFA and permeabilized 10 minutes in PBS-0.1% Triton. Nuclei were stained with DAPI for 5 minutes. Cells were maintained in PBS, imaged in 384 well plates by an ArrayScan VTI at 10× using the spot detector software.

CCCCCCCCc1ccc(CC[C@](N)(CO)COP(=O)(O)O)cc1 [FTY720-P]
internalization of S1P1 receptor: induced
